Results published in US6869783B1, “Method for producing chiral carboxylic acids from nitriles with the assistance of a nitrilase or microoganisms which contain a gene for the nitrilase” (BASF Aktiengesellschaft, priority 1998, dated 2005).

System: nitrilase 1650
Assay: Conversion of various nitriles with nitrilase 1650 (NH4 ions in supernatant, microtiter plate)
Format: biochemical, Alcaligenes faecalis 1650
Design: Activity: unit not given here
Conditions: 10 mM substrate, 2 g/l dry biomass, 30° C, 2 hours, pH 7.2

**Q.** 4-flourobenzyl cyanide was tested. Which “% conversion” value did it give?
**A.** 100%

**Q.** What about the Activity of the same substance?
**A.** 9.2

**Q.** What about the “μmol/l (amount of NH4 ions produced in the supernatant)” value (average of a microtiter plate row) of the same substance?
**A.** 2222.9 µmol/L

Some compounds may have been tested in ways that are not shown here.
